Molecular target: HDAC8 (Homo sapiens, UniProt Q9BY41, T69A)
Assay: biochemical

Sequences of proteins named here, by UniProt entry; tags and fusion partners are left off. A line that says so, or that is headed by a name, gives the form on record, which may keep a tag or linker.
UniProt Q9BY41, with tags, fused parts or gaps T69A: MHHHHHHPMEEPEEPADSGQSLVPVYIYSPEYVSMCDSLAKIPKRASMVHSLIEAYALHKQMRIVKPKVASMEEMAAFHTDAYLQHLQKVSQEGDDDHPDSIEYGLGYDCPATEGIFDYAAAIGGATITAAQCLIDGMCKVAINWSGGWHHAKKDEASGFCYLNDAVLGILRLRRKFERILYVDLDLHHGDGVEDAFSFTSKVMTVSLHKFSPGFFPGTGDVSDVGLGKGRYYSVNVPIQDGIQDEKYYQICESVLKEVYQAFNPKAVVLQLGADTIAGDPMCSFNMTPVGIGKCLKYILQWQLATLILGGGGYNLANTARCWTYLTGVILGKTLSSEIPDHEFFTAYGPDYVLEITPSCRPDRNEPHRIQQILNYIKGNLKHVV

SMILES: O=C(CCCCCCC(=O)Nc1ccccc1)NO [SAHA, suberanilohydroxamic acid]
- IC50: 242 nM

From patent US7169801B2, “Histone deacetylase inhibitors” (Takeda San Diego, Inc., priority 2003, dated 2007)
